# Yeast mating assay B: variants of the scFv Ab-14

Binding partner: SARS-CoV-2 spike HR2 peptide, sequence PDVDLGDISGINAS.

Each scFv is VH, a 15-residue (Gly4Ser)3 linker, VL, as in the parent Ab-14, and differs from it in the CDRs of the heavy chain only.
VH: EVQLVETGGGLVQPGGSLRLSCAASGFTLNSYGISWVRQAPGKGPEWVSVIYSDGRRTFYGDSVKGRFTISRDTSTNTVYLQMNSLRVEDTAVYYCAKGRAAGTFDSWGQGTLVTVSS
VL: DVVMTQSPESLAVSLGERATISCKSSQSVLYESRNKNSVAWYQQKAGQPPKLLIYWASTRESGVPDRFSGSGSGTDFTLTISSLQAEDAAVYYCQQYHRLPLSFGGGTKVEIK

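The variants were designed computationally from a first round of random CDR variants and then made and measured. Group labels follow the data file (Ctrl: baseline library sampled from a position-specific scoring matrix, with some repeated check sequences; Rand: our label for a block that the file lists under HC and that is probably the random mutants of the ten best first-round binders; En: ensemble of fine-tuned language models; GP: Gaussian process model; GPLM: also part of the Gaussian process libraries; HC: hill climbing; Gen: genetic algorithm; Gibbs: Gibbs sampling; a sequence that several methods proposed may carry one label only). In AlphaSeq, yeast of one mating type display the scFv and yeast of the other type display the target. Pairs that bind mate more often; barcode pairs of the diploids are counted by sequencing. A regression on co-assayed BCL2-family reference pairs converts the normalised counts of each replicate to an apparent Kd. Each pool was mated in six replicate cultures.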

Changes read parent residue, position, new residue, counted from the first residue of the VH shown.
This list holds designs with at most six substitutions.
Values are apparent Kd, the geometric mean of the replicates that gave a signal; lower means stronger binding.
A pair that was not seen in any replicate is written "no signal"; this usually means weak binding, but a binder can also be missed.
Values of this round are not directly comparable with the first-round values of the same sequences.
Three control strains display no target. For all heavy chain designs, 1% of the pairings with them gave a signal, with a median of 120 nM and one signal in twenty below 7.0 nM, so weak values seen in few replicates may be background.
The authors' rule: three or more of the six replicates give a measured affinity, fewer mean a poor binder.
The parent sequence was in this pool as ten entries: three were never detected, three once, and four in most replicates, with averages from 2.2 nM to 240 nM.

The variant F59M+G103D [Ctrl] gave 150 nM (1 of 6 replicates).
The variant G26S+T28N+A101Q [GP_Gen] gave no signal (0 of 6 replicates).
The variant T28E+G61I+R100N+S107K [GP_Gen] gave 14 nM (6 of 6 replicates).
The variant S53A+R100Q+D106K+S107M [GP_HC] gave no signal (0 of 6 replicates).
The variant T28K+G61K+G103K [Ctrl] gave no signal (0 of 6 replicates).
The variant T28S+G61T+R100E+A101Q [GPLM_Gen] gave 2.7 nM (6 of 6 replicates).
The variant Y32T+S53A+F59I+F105N+D106K [Rand] gave no signal (0 of 6 replicates).
The variant T28S+S31Y+R56K+A101T [GP_Gen] gave 10 nM (3 of 6 replicates).
The variant T28E+G61S+R100K+A101T [GP_Gen] gave 570 pM (6 of 6 replicates).
The variant S31D+R100N+D106M+S107W [Ctrl] gave no signal (0 of 6 replicates).
The variant T28S+S31E+G61I+R100Q+S107K [GPLM_Gen] gave no signal (0 of 6 replicates).
The variant T28D+S63N+R100N+A101T [GP_Gibbs] gave 570 pM (6 of 6 replicates).
The variant R100F+D106N+S107K [Ctrl] gave no signal (0 of 6 replicates).
The variant T28N+R100Q+A101E+S107T [GP_Gen] gave 1.0 nM (6 of 6 replicates).
The variant R100W+A101N [Ctrl] gave 350 nM (2 of 6 replicates).
The variant T28S+G61A+A101T+T104M [GPLM_Gen] gave 150 nM (5 of 6 replicates).
The variant S31E+G61S+A101Q [GPLM_HC] gave 1.0 nM (6 of 6 replicates).
The variant S63F+A101I+S107W [Ctrl] gave no signal (0 of 6 replicates).
The variant T28S+R100E+S107T [GPLM_Gen] gave 2.5 nM (6 of 6 replicates).
The variant N30E+S53H+A102G [Ctrl] gave no signal (0 of 6 replicates).
The variant T28D+S31E+S53A+G61A+R100Q+S107V [En_HC] gave 290 pM (6 of 6 replicates).
The variant S31E+D106F+S107Q [GP_HC] gave 2.8 nM (5 of 6 replicates).
The variant T28S+K65R+R100S+S107M [Ctrl] gave 13 nM (6 of 6 replicates).
The variant T28S+S31N+R100Q+S107L [GPLM_Gen] gave 1.9 nM (6 of 6 replicates).
The variant T28S+G103T+S107T [Ctrl] gave no signal (0 of 6 replicates).
The variant T28E+G61A+S63Q+R100W+A101T [GP_Gibbs] gave 2.0 nM (6 of 6 replicates).
The variant T28Q+G61A+R100E [GPLM_Gen] gave 94 nM (6 of 6 replicates).
The variant S31Q+R100S [Ctrl] gave 1.5 nM (6 of 6 replicates).
The variant T28D+A102N+G103V+T104W+D106N [Rand] gave no signal (0 of 6 replicates).
The variant F27M+S53A+Y60N+F105N+D106K [Rand] gave no signal (0 of 6 replicates).
The variant T28D+R100K+A101R+D106E [GP_HC] gave no signal (0 of 6 replicates).
The variant G26L+S31R [Ctrl] gave no signal (0 of 6 replicates).
The variant G26R+G61I+A101V [GP_HC] gave 43 nM (3 of 6 replicates).
The variant S53A+R56K+F59T+D106V [Ctrl] gave no signal (0 of 6 replicates).
The variant T28H+G61K+A101N+F105A [Ctrl] gave 400 nM (1 of 6 replicates).
The variant S31D+F59M+G61I+A101S [GP_HC] gave 58 nM (3 of 6 replicates).
The variant N30S+F59Y+S63K+R100A+F105A [Ctrl] gave no signal (0 of 6 replicates).
The variant T28S+S31E+G61T+A101Y [GPLM_Gen] gave 2.2 nM (6 of 6 replicates).
The variant S31D+G61H+V64F [Ctrl] gave no signal (0 of 6 replicates).
The variant T28S+S31E+G61I+R100H [GPLM_Gibbs] gave 1.7 nM (6 of 6 replicates).
The variant R56Y+G61A [GP_HC] gave 39 nM (6 of 6 replicates).

The measurements come from Li et al. 2023 (doi:10.1038/s41467-023-39022-2) through the FLAb antibody collection.